Source: US20120157395A1, “ANTI-INFLAMMATORY AGENT FOR ORAL APPLICATION, AND ANTI-INFLAMMATORY PEPTIDE FOR ORAL APPLICATION” (priority 2009, published 2012)

Experiment: Identification of absorbed peptides in plasma (PDA-HPLC, LC-MS/MS)
Assay type: in vivo
Details: pigs fed Peptide Composition 1 (Example 1), blood collected during dissection; 3 peptide peaks present
Procedure: First, between 3 and 5 day-old 18 pigs were divided into 3 groups and they were bred for 3 days. Then the groups were designated as test groups (Example 1 and Comparative Example 1) and a control group (Comparative Example 2) and 1.25 g of dextran sulfate per kg of body weight was given as drinking water for 5 days (DSS treatment). Then, 250 mg of Peptide Composition 1 per kg of body weight was fed for 5 days in Example 1, 250 mg of Peptide Composition 2 per kg of body weight was fed for 5 days in Comparative Example 1, and alanine corresponding to the nitrogen content of the peptide was fed in Comparative Example 2. After that, the intestinal tract cells were collected during dissection and cytokines were measured. Comparative Example 2 corresponds to the control. (Dextran sulfate is a substance which induces bowel inflammation. International J. of Colorectal Disease, 15, 144-160 (2000))
Blood was collected during dissection and plasma was isolated, and then the structural analysis of a peak obtained by PDA-HPLC was carried out by LC-MS/MS to identify an amino acid sequence of the peptides.

- peptide peak present in plasma: second largest peak
SMILES: CC(C)[C@H](N)C(=O)N1CCC[C@H]1C(=O)N[C@@H](Cc1ccc(O)cc1)C(=O)O [VPY, Val-Pro-Tyr]
